According to paper PMC4803528:

What was measured:
[1] = target: nΔ150 KDM1A (lysine-specific demethylase 1A, residues 151–852) (human) (UniProt O60341); assay: enzyme inhibition kinetics
[2] = target: full-length histone H3 (H3^1–135), without posttranslational modifications (UniProt P68431); assay: SPR

| Substance | Ki [1] | Ki app (Henderson plot) [1] | Ki app (IC50 against [E]T) [1] | Ki app (Morrison equation) [1] | Kd [2] | koff [2] | kon [2] |
| --- | --- | --- | --- | --- | --- | --- | --- |
| full-length histone H3 (H3^1–135), without posttranslational modifications (from UniProt P68431 2-136) (natural protein) | 18.9 nM | 103 nM | 61.2 nM | 59.1 nM | – | – | – |
| nΔ150 KDM1A (lysine-specific demethylase 1A, residues 151–852) (from UniProt O60341 151-852) (enzyme) | – | – | – | – | 9.02 nM | 0.00084 s⁻¹ | 93000 M⁻¹ s⁻¹ |
